Values of other authors as cited in article PMC11774939, “Optimizing lipopeptide bioactivity: The impact of non-ionic surfactant dressing” (Journal of Pharmaceutical Analysis, 2024).

How the values were obtained:
[1] = approved drug characteristics; cited from earlier work
From the text: Supplement mmc1.docx, table 1: Table S1. Lipopeptide-based drugs, with their characteristics, disease target, and the year of approval. | column: Half-life (h); Route of elimination

[2] = approved drug characteristics; cited from earlier work; remark: listed apart in the source
From the text: Supplement mmc1.docx, table 1: Table S1. Lipopeptide-based drugs, with their characteristics, disease target, and the year of approval. | column: Plasma protein binding

Row | Substance | Half-life [1] | Route of elimination [1] | Plasma protein binding [2]
1 | Colistimethate | 2 to 3 h | Mainly urinary excretion | 
2 | Dalbavancin | 346 h |  | 
3 | Daptomycin | 7.5 to 9 h |  | 
4 | Liraglutide | 13 h | Urinary and fecal excretion | 98%
5 | Semaglutide | 168 h | Urinary and fecal excretion | >99%
6 | Tirzepatide | 120 h | Urinary and fecal excretion | 99%
